Source: PubChem BioAssay (several laboratories)
Hits are enriched below; roughly 1.5% of the tested compounds scored in any of these assays.
MLLE-PAM2 inh = inhibitors of PABP1 MLLE–PAM2 peptide binding, primary screen, biochemical, fluorescence polarization, FITC-PAM2, GST-MLLE | 360,000 tested, 0.36% active | AID 588489, 2011 | Polyadenylate-binding protein 1 (Homo sapiens), P11940 | inhibition, % at 20 µM; in the data active = inhibition above about 35%, passing the limit was not always enough;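 also: plate controls were DMSO wells with GST-MLLE for no effect and wells lacking GST-MLLE protein for full effect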
Yeast UUG start = alters start codon recognition fidelity in yeast; AID 602363; activity score, % at 18.7 µM; 350,000 tested, 0.13% active; S. cerevisiae UUG-firefly luciferase reporter, luminescence/redox ratio;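 active means replicate mean at a twofold rise or more, about +100% in these data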;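 further: firefly luciferase made from a UUG start codon reports start codon fidelity; reporter light over untreated wells divided by growth signal over untreated wells; some hits fall short of that in this replicate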
PABP polyA inh = PABP poly(A) RNA binding inhibitors, primary screen, biochemical, fluorescence polarization, uHTS. Polyadenylate-binding protein 1 (Homo sapiens), P11940. 290,000 tested, 1% active. calls only at 35 µM;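 also: calls also rest on retests at 20 µM and on dose response follow-up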
eIF4H inh = human eIF4H binding inhibitors, primary screen, translation initiation inhibitor project, biochemical, uHTS, fluorescence polarization | eIF4H fluorescence polarization binding assay | inhibition, % at 35 µM | Eukaryotic translation initiation factor 4H (Homo sapiens), Q15056 | 290,000 tested, 0.94% active;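 also: calls also rest on retests at 20 µM and on dose response follow-up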
Pemphigus Ab inh = inhibitors of pemphigus antibody binding to DSG3, primary screen, biochemical, bead-based, flow cytometry, scFv-GFP; binding (percent of control), % at 10 µM; Desmoglein-3 (Homo sapiens), P32926; 310,000 tested, 0.48% active; DSG3-coupled beads, scFv-anti-DSG3-GFP binding; stronger effect = lower value;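 active = binding more than 3 SD below its plate's average and above zero; inconclusive = below that plate limit but binding exactly zero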;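 also: hits lower antibody fragment binding to DSG3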
* marks the source's active call; other numbers are inactive results; i = inactive; ? = inconclusive; . = no result given; + = active, no number. Unless noted, no rule for the calls is given here.

Amino acid sequences for entries named in this document (tags omitted).
Polyadenylate-binding protein 1 (Homo sapiens), P11940, UniProt P11940, whole entry, looked up: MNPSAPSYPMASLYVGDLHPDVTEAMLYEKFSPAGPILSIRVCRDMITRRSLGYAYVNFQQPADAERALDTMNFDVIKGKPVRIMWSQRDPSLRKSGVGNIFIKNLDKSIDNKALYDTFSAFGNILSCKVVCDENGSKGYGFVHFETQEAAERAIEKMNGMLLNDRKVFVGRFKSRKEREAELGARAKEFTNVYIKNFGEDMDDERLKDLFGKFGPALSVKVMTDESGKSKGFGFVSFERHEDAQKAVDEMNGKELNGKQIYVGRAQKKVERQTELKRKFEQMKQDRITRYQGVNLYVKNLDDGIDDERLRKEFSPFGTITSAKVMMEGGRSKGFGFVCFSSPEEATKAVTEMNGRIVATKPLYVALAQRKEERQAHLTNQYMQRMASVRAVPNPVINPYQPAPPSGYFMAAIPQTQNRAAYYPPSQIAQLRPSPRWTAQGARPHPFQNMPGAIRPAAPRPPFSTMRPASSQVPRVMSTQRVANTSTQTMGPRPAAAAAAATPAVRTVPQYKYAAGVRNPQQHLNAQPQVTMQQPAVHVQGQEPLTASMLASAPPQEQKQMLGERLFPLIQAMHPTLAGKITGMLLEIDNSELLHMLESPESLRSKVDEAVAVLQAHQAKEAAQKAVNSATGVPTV
Desmoglein-3 (Homo sapiens), P32926, UniProt P32926, whole entry, looked up: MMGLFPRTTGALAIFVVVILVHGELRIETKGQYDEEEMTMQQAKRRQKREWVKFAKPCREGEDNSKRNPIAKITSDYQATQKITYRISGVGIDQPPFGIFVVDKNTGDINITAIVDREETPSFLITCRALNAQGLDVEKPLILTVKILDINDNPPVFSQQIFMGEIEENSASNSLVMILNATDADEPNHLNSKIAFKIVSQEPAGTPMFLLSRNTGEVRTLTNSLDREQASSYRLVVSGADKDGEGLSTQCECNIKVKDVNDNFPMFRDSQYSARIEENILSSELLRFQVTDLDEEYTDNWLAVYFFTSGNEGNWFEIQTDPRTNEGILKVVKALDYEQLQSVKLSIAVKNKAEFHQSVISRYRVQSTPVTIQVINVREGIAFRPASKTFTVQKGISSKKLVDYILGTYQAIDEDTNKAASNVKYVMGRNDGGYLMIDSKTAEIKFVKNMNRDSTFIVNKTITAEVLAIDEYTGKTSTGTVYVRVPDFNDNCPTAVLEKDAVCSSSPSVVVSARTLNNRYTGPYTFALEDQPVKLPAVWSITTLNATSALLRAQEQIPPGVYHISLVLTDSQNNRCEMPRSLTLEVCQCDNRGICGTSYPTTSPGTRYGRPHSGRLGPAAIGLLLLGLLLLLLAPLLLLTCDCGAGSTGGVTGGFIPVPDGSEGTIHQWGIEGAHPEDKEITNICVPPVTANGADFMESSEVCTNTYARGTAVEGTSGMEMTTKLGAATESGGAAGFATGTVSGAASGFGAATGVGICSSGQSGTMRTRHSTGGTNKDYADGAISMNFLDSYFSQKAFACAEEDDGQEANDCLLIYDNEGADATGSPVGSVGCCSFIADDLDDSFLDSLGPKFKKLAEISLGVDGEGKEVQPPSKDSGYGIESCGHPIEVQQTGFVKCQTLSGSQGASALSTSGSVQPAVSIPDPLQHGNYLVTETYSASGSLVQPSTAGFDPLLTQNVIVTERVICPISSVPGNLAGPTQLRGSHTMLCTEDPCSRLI

Short forms – A = MLLE-PAM2 inh; B = Yeast UUG start; C = PABP polyA inh; D = eIF4H inh; E = Pemphigus Ab inh
compound: Cc1ccc(NC(=O)Nc2nnc(CSCCOc3ccc(Cl)cc3)s2)cc1
  A: -30 | B: . | C: + | D: 84 | E: 95
compound: CCC(=O)N1[C@@H]2c3cccc(=O)n3C[C@@H]2[C@@H](CO)[C@@H]1C(=O)NC1CCCCC1
  A: . | B: -12 | C: . | D: . | E: .
compound: COc1ccc(C2=CC3=C(Br)C(=O)C(C)(OC(=O)C4CCCC4)C(=O)C3=CO2)cc1 (configuration not stated)
  A: -24 | B: -14 | C: ? | D: ? | E: 86
compound: COc1ccc(C2=CC3=C(Br)C(=O)C(C)(OC(=O)c4ccc(Cl)nc4)C(=O)C3=CO2)cc1 (configuration not stated)
  A: . | B: . | C: + | D: 86 | E: .
compound: COc1ccc(C2Nc3ccccc3C(=O)N2Cc2ccco2)cc1COc1ccc(NC(C)=O)cc1 (configuration not stated)
  A: -4 | B: -11 | C: i | D: 8 | E: 37*
compound: COc1ccc(C2Nc3ccccc3C(=O)N2Cc2ccco2)cc1COc1ccccc1F (configuration not stated)
  A: -5 | B: . | C: i | D: -4 | E: 103
compound: O=C(COC(=O)c1ccc(Cl)cc1[N+](=O)[O-])NC(=O)c1ccccc1
  A: 4 | B: -9 | C: i | D: -7 | E: 49*
compound: Cn1c(=O)c2c(nc(NCCOc3ccc(F)cc3)n2C)n(C)c1=O
  A: 2 | B: . | C: i | D: -5 | E: 91*
compound: O=c1nc(/C=C/c2ccc(-c3ccc(F)cc3)o2)cc(C(F)(F)F)[nH]1
  A: . | B: . | C: + | D: 127 | E: .
compound: O=C(O)c1ccccc1-c1ccc(/C=C/c2cc(C(F)(F)F)[nH]c(=O)n2)o1
  A: i | B: . | C: i | D: ? | E: 103
compound: Cc1ccc(-c2ccc3c(c2)O[C@H](CN(C)C(=O)Nc2ccc(F)cc2)[C@H](C)CN([C@H](C)CO)S3(=O)=O)cc1
  A: . | B: -8 | C: . | D: . | E: .
compound: CC1CCc2c(sc(NC(=O)CCC(=O)O)c2C(=O)NC2CC2)C1 (configuration not stated)
  A: 40* | B: -21 | C: i | D: -8 | E: 107
compound: COc1ccc(-c2cc(C(=O)N3CCCC3)c3ccccc3n2)cc1
  A: -12 | B: -17 | C: . | D: . | E: 96
compound: COc1ccc(-c2cc(C(=O)N3CCCCCC3)c3ccccc3n2)c(OC)c1
  A: 19 | B: 20 | C: + | D: 84* | E: 107
compound: COc1ccc(-c2cc(C(=O)N3CCN(c4ccccc4)CC3)c3ccccc3n2)cc1
  A: 11 | B: . | C: + | D: 57* | E: 104
compound: O=C(c1ccccc1C(=O)N1CCN(c2ccccc2)CC1)N1CCN(c2ccccc2)CC1
  A: 86 | B: -2 | C: + | D: 127* | E: 110
compound: COc1ccc(-c2cc(C(=O)N/N=C/c3ccc4c(c3)OCO4)c3ccccc3n2)c(OC)c1
  A: 1 | B: -12 | C: i | D: 6 | E: 77*
compound: O=C(O)c1ccccc1C(=O)N1CCN(c2ccccc2)CC1
  A: 1 | B: 3 | C: i | D: -8 | E: .
compound: C[C@H](CO)N1C[C@H](C)[C@H](CN(C)C(=O)Nc2cccc3ccccc23)Oc2ncc(-c3cccc(C(F)(F)F)c3)cc2C1=O
  A: . | B: -5 | C: . | D: . | E: .
compound: O=C(c1sc2cc(F)ccc2c1Cl)N1CCN(c2ccccc2)CC1
  A: 7 | B: . | C: + | D: 76* | E: 98
compound: C[C@@H]1CN([C@@H](C)CO)C(=O)c2cc(NS(C)(=O)=O)ccc2O[C@H]1CN(C)S(=O)(=O)c1ccc(Cl)cc1
  A: . | B: -7 | C: . | D: . | E: .
compound: COc1ccc(-c2ccc(C3C(C#N)=C(N)Oc4n[nH]c(C)c43)o2)cc1 (configuration not stated)
  A: -63 | B: -12 | C: + | D: ? | E: 106
compound: Cc1ccc(-c2[nH]nc3c2C(C)C(C#N)=C(N)O3)cc1 (configuration not stated)
  A: 3 | B: -22 | C: i | D: 9.9* | E: 96
compound: C[C@H](CO)N1C[C@H](C)[C@@H](CN(C)C(=O)C2CCC2)Oc2ncc(C3=CCCC3)cc2C1=O
  A: . | B: 2 | C: . | D: . | E: .
compound: O=S(=O)(c1cccc(F)c1)N1CC[C@H]2[C@H](CO)Nc3ccc(-c4cccc(F)c4)cc3[C@H]21
  A: . | B: 14 | C: . | D: . | E: .
compound: Cc1ccc(C)c(/C(O)=C2/C(=O)C(=O)N(CCN3CCOCC3)C2c2ccco2)c1 (configuration not stated)
  A: 12 | B: -19 | C: i | D: 55* | E: 102
compound: Cc1ccc(NC(=O)C[C@H]2CC[C@H]3[C@@H](COc4ccc(NC(=O)C(C)C)cc4C(=O)N3C)O2)cc1
  A: . | B: 0 | C: . | D: . | E: .

3 of the entries above in order of their number in MLLE-PAM2 inh, low to high:
Structure,MLLE-PAM2 inh
COc1ccc(-c2ccc(C3C(C#N)=C(N)Oc4n[nH]c(C)c43)o2)cc1 (configuration not stated),-63
O=C(O)c1ccccc1C(=O)N1CCN(c2ccccc2)CC1,1
Cc1ccc(-c2[nH]nc3c2C(C)C(C#N)=C(N)O3)cc1 (configuration not stated),3
